Screening results as filed in PubChem.
This is a sample that favours compounds with a hit; in the whole collection about 1.8% have one here.
DENV2 CPE: inhibitors of DENV2 cytopathic effect, primary screen, cell-based, plate reader, single concentration. DENV2-infected cells, cytopathic effect rescue. CPE inhibition, % at 9.99 µM. hit rate 1.7% among 350,000. AID 651640, 2012; in the data active = CPE inhibition above about 20%, passing the limit was not always enough; inconclusive = no clear call, values can overlap the other calls; tested in BHK-21 cells
Cneo AK release: Cryptococcus neoformans cell lysis inducers, primary screen, AK release luminescence, single concentration. C. neoformans lysis, adenylate kinase release luminescence, 4 h; normalised: neutral wells 0, clomiphene wells 100. hit rate 0.2% among 360,000. AID 651654, 2012. lysis activity, % at 15 µM;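 active = mean lysis activity across replicates of at least 80%, whatever share of replicates individually reach that level; inactive = mean lysis activity below 80%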
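read-out = cell lysis signal | test system = log-phase Cryptococcus neoformans yeast cells | input = cells at 5 × 10^6 per mL | medium = fresh YPD growth medium | signal = luminescent adenylate kinase detection reagent | timing = 4 h at 37 °C static, read 1 h later | dosing = single dose | controls = Clomiphene as positive lysis control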
E-selectin induc: E-selectin induction in HUVECs, primary screen, imaging, HUVEC, immunofluorescence imaging, single point; hit rate 0.37% among 260,000; activation, % at 7.58 µM; P16581; normalized: neutral wells 0, TNF-alpha wells 100;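 active = mean E-selectin-positive cell signal at least 10% of the positive control, reached in at least 60% of replicates, without over 20% cell loss; inconclusive = no rule given, readout overlaps actives, possibly toxicity-flagged; inactive = the rest, including those meeting only one limit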
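material = human umbilical vein endothelial cells (HUVEC), E-selectin induction | quantity = 3,000 cells/well | medium = EGM-2 growth medium on 0.1% gelatin-coated wells | technique = immunofluorescence imaging | read-out basis = % PE-positive cells | control set = TNF-alpha positive control, DMSO neutral control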
UUG fidelity: modulators of start codon recognition fidelity in yeast; AID 602363; hit rate 0.13% among 350,000; activity score, % at 18.7 µM; S. cerevisiae UUG-firefly luciferase reporter, luminescence/redox ratio;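 active = replicate mean at a twofold rise or more, about +100% in these data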;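 note: firefly luciferase made from a UUG start codon reports start codon fidelity; reporter light over untreated wells divided by growth signal over untreated wells; some hits fall short of that in this replicate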
Numbers stand for hits; 0 = inactive; ? = inconclusive; - = no result; ! = not active in a repeat.

SMILES	DENV2 CPE	Cneo AK release	E-selectin induc	UUG fidelity
C[C@H](CO)N1C[C@H](C)[C@@H](CN(C)S(=O)(=O)c2cn(C)cn2)Oc2c(NS(=O)(=O)c3ccccc3)cccc2C1=O	23!	0	0	0
C[C@H](CO)N1C[C@H](C)[C@@H](CN(C)S(=O)(=O)c2cn(C)cn2)Oc2c(NC(=O)Nc3ccc(F)cc3)cccc2C1=O	-	-	0	-
CC(=O)Nc1ccc(NC(=O)COc2ccc(Cl)cc2Cl)cc1	0	0	48	0
O=C(COc1ccc(Cl)cc1Cl)Nc1ccc(Cl)cn1	0	0	-	0
CCCNC(=O)N1CC2(C1)[C@H](c1ccccc1)[C@H](CO)N2CC1CCCC1	0	-	0	-
Cc1ccc(Sc2ncccc2C(=O)NCc2cc([N+](=O)[O-])ccc2O)cc1C	58	0	0	0
Cc1ccc(NC(=O)c2cc3ccccc3cc2O)cc1	0	0	-	0
COc1ccc(NC(=O)c2cc3ccccc3cc2O)cc1	46	0	-	0
Cc1ccc(S(=O)(=O)N2C[C@@H](O)COC[C@H]3O[C@@H](CC(=O)NCCN4CCCCC4)CC[C@@H]32)cc1	67	0	0	0
Cc1ccc(S(=O)(=O)N2C[C@H](O)COC[C@H]3O[C@H](CC(=O)NCCN4CCCCC4)CC[C@@H]32)cc1	0	0	0	0
CN(C)CCCNC(=O)C[C@@H]1CC[C@H]2[C@@H](COC[C@H](O)CN2S(=O)(=O)c2ccccc2)O1	60	0	0	0
CN(C)CCCNC(=O)C[C@@H]1CC[C@@H]2[C@H](COC[C@@H](O)CN2S(=O)(=O)c2ccc(F)cc2)O1	0	0	0	0
COc1ccccc1C#Cc1ccc2c(c1)O[C@@H](CN(C)C)[C@H](C)CN([C@H](C)CO)S2(=O)=O	0	0	0	0
CCC(=O)N1CC2(CN(C(=O)Cc3ccccc3)C2)c2c(n(C)c3cc(OC)ccc23)[C@H]1CO	0	-	0	-
Cc1ccnc(NC(NC(=O)C(C)C)(C(F)(F)F)C(F)(F)F)c1	0	-	136	-
Nc1ccc2oc(-c3ccccc3Cl)cc(=O)c2c1O	105	0	0	0
CCOC(=O)[C@]12CCCC=C1N(CCC1=CCCCC1)C(=O)[C@H](CC(=O)NCc1cccc3ccccc13)C2	22	-	0	-
CCOC(=O)[C@]12CCCC=C1N(Cc1ccc3c(c1)OCO3)C(=O)[C@H](CC(=O)NCCCCc1ccccc1)C2	50	-	-	-
CCOC(=O)[C@]12CCCC=C1N(CCC1=CCCCC1)C(=O)[C@H](CC(=O)NCc1ccc(OC)c(OC)c1)C2	38	-	0	-
CCOC(=O)[C@]12CCCC=C1N(Cc1cccc3ccccc13)C(=O)[C@H](CC(=O)NCc1ccccc1)C2	0	-	-	-
CC(C)C(=O)Nc1ccc2c(c1)C(=O)N(C)[C@H]1CC[C@H](CC(=O)N[C@@H](C)c3ccccc3)O[C@H]1CO2	0	0	0	0
CNC[C@@H]1Oc2cc(-c3cccc(C(=O)N(C)C)c3)ccc2S(=O)(=O)N([C@H](C)CO)C[C@H]1C	0	0	0	0
C[C@@H]1CN([C@@H](C)CO)S(=O)(=O)c2ccc(-c3ccccc3)cc2O[C@H]1CN(C)C	0	0	0	0
COc1ccc(CN(C)C[C@@H]2OCCCC[C@@H](C)Oc3ccc(NS(=O)(=O)c4cccs4)cc3C(=O)N([C@H](C)CO)C[C@H]2C)cc1	0	0	0	0
COc1cc(CO)cc(I)c1O[C@H]1C=C(C(=O)NCCO)C[C@@H](N(CC2CCCCC2)C(=O)c2ccc(C(F)(F)F)cc2)[C@@H]1O	0	0	-	0
SMILES	DENV2 CPE	Cneo AK release	E-selectin induc	UUG fidelity
O=C(NCCN1CCCCC1)[C@@H]1N[C@@H]2c3ccc(-c4ccncc4)c(=O)n3C[C@@H]2[C@H]1CO	0	103	0	-
COc1ccc(-c2ccc3n(c2=O)C[C@H]2[C@H](CO)[C@@H](C(=O)NCCN4CCCC4)N(C)[C@@H]32)cc1	0	-	0	-
O=C(NCC1CCCCC1)[C@@H]1[C@@H](CO)[C@@H]2Cn3c(ccc(-c4cccnc4)c3=O)[C@H]1N2	106	-	0	-
COc1ccc(-c2ccc3n(c2=O)C[C@H]2[C@H](CO)[C@@H](C(=O)NCCN4CCCCC4)N(C)[C@@H]32)cc1	34	-	0	-
O=C(NCC1CCCCC1)[C@@H]1[C@@H](CO)[C@@H]2Cn3c(ccc(-c4cncnc4)c3=O)[C@H]1N2	0	0	0	-
COCC(=O)Nc1ccc2c(c1)C(=O)N(C)[C@H]1CC[C@H](CC(=O)NCC3CC3)O[C@H]1CO2	0	0	0	0
CC(=O)Nc1ccc(NC(=O)CSc2nnc(NC(=O)c3ccccc3F)s2)cc1	30	0	0	0
O=C(CSc1nnc(NC(=O)c2ccccc2F)s1)NC1CCCC1	0	0	-	0
CC1(C)CC(=O)N(CC(=O)O)c2ccccc2S1(=O)=O	34	0	-	0
CN1CCN(C(=O)CN2C(=O)CC(C)(C)S(=O)(=O)c3ccccc32)CC1	-	0	-	0
CC(C)OC(=O)c1cccnc1N1CCN(c2cccc(Cl)c2)CC1	0	-	34	-
O=C1C2(CCCC13COC(c1ccc(O)cc1)OC3)COC(c1ccc(O)cc1)OC2 (centres undefined)	28	-	-	-
COc1ccc(S(=O)(=O)N(C)C[C@H]2OCc3cnnn3CCCC(=O)N([C@H](C)CO)C[C@@H]2C)cc1	0	0	0	0
C[C@H](CO)N1C[C@H](C)[C@H](CN(C)S(=O)(=O)c2ccccc2)OCc2cnnn2CCCC1=O	28!	0	0	0
C[C@H]1CN([C@@H](C)CO)C(=O)CCCn2nncc2CO[C@@H]1CN(C)S(=O)(=O)c1ccccc1F	70	0	0	0
COc1ccc(S(=O)(=O)N(C)C[C@H]2OCc3cnnn3CCCC(=O)N([C@@H](C)CO)C[C@H]2C)cc1	64!	0	0	0
COc1cccc(S(=O)(=O)N(C)C[C@@H]2OCc3cnnn3CCCC(=O)N([C@@H](C)CO)C[C@@H]2C)c1	20!	0	0	0
C[C@H](CO)N1C[C@H](C)[C@@H](CN(C)S(=O)(=O)c2ccccc2F)OCc2cnnn2CCCC1=O	0	0	0	0
C[C@@H]1CN([C@H](C)CO)C(=O)CCCn2nncc2CO[C@@H]1CN(C)S(=O)(=O)c1ccccc1	?	0	0	0
CCCC(=O)Nc1ccc2c(c1)C(=O)N(C)C[C@H](OC)[C@@H](C)CN(Cc1cccc(F)c1)[C@H](C)CO2	0	0	0	0
C[C@@H]1CN([C@@H](C)CO)C(=O)c2cc(NC(=O)CCCN(C)C)ccc2O[C@@H](C)CCCCO[C@@H]1CN(C)C(=O)Nc1ccc2c(c1)OCO2	0	-	0	-
Cc1ccc(S(=O)(=O)Nc2ccc3c(c2)C(=O)N([C@@H](C)CO)C[C@@H](C)[C@H](CN(C)S(=O)(=O)c2ccc(C)cc2)O3)cc1	?	0	0	0
COc1ccc(S(=O)(=O)N(C)C[C@@H]2OCc3cnnn3CCCC(=O)N([C@@H](C)CO)C[C@H]2C)cc1	28!	0	0	0
